{"source": "patent EP3339324A1", "about": "“ANTI-ADRENOMEDULLIN (ADM) ANTIBODY OR ANTI-ADM ANTIBODY FRAGMENT OR ANTI-ADM NON-IG SCAFFOLD FOR USE IN IN[…] THERAPY OF […] A PATIENT IN NEED THEREOF” (sphingotec GmbH, priority 2016, dated 2018)", "target": "hADM (Homo sapiens, UniProt P35318)", "conditions": "human Citrate plasma, 10nM hADM, 24 °C, absence of NT-H"}
{"smiles": "CC[C@H](C)[C@H](NC(=O)[C@H](CCC(N)=O)NC(=O)[C@H](Cc1c[nH]cn1)NC(=O)[C@H](C)NC(=O)[C@H](CC(C)C)NC(=O)[C@H](CCCCN)NC(=O)[C@H](CCC(N)=O)NC(=O)[C@@H](NC(=O)[C@@H](NC(=O)[C@@H]1CSSC[C@H](NC(=O)CNC(=O)[C@H](Cc2ccccc2)NC(=O)[C@H](CO)NC(=O)[C@H](CCCNC(=N)N)NC(=O)[C@H](CC(C)C)NC(=O)CNC(=O)[C@H](CCC(N)=O)NC(=O)[C@H](Cc2ccccc2)NC(=O)[C@H](CC(N)=O)NC(=O)[C@H](CC(N)=O)NC(=O)[C@H](CCSC)NC(=O)[C@H](CO)NC(=O)[C@H](CCC(N)=O)NC(=O)[C@H](CCCNC(=N)N)NC(=O)[C@@H](N)Cc2ccc(O)cc2)C(=O)N[C@@H](CCCNC(=N)N)C(=O)N[C@@H](Cc2ccccc2)C(=O)NCC(=O)N[C@@H]([C@@H](C)O)C(=O)N1)[C@@H](C)O)C(C)C)C(=O)N[C@@H](Cc1ccc(O)cc1)C(=O)N[C@@H](CCC(N)=O)C(=O)N[C@@H](Cc1ccccc1)C(=O)N[C@H](C(=O)N[C@@H](CC(=O)O)C(=O)N[C@@H](CCCCN)C(=O)N[C@@H](CC(=O)O)C(=O)N[C@@H](CCCCN)C(=O)N[C@@H](CC(=O)O)C(=O)N[C@@H](CC(N)=O)C(=O)N[C@H](C(=O)N[C@@H](C)C(=O)N1CCC[C@H]1C(=O)N[C@@H](CCCNC(=N)N)C(=O)N[C@@H](CO)C(=O)N[C@@H](CCCCN)C(=O)N[C@H](C(=O)N[C@@H](CO)C(=O)N1CCC[C@H]1C(=O)N[C@@H](CCC(N)=O)C(=O)NCC(=O)N[C@@H](Cc1ccc(O)cc1)C(N)=O)[C@@H](C)CC)C(C)C)[C@@H](C)O", "note": "[hADM]", "values": [{"measurement": "half-life of hADM alone", "value": 7.8, "unit": "h"}]}
